Values of other authors as cited in US20260382613A1, “METHODS OF TREATING ACUTE LEUKEMIA” (published 2026).

Columns and labels:
[1] = test system: MEN1; conditions: revumenib, at least 2 cycles; cited from earlier work
[2] = revumenib; cited from earlier work

In the case of `CCN(C(=O)c1cc(F)ccc1Oc1cncnc1N1CC2(CCN(C[C@H]3CC[C@H](NS(=O)(=O)CC)CC3)CC2)C1)C(C)C`, the “patients with one or more MEN1 mutations” value [1] is listed as 39% and the “QT prolongation as treatment-related adverse event” value [2] is listed as 53%.
